Yeast mating assay B: variants of the scFv Ab-14

Reference: Li et al. 2023, doi:10.1038/s41467-023-39022-2. File: FLAb, binding data.

Antigen: PDVDLGDISGINAS, a 14-residue peptide of the SARS-CoV-2 spike HR2 region.

Parent: Ab-14, a human scFv built as VH, a (GGGGS)3 linker, VL. Only the CDRs of the light chain vary.
VH: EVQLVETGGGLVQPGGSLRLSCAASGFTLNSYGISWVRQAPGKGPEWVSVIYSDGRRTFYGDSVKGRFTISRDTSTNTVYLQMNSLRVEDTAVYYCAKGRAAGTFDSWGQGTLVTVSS
VL: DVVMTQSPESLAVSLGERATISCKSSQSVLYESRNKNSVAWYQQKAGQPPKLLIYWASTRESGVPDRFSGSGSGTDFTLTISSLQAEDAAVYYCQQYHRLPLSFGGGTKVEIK

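Designed CDR sequences, proposed from the first random library and measured here. Their group label is 14L_GP_HC (GP: Gaussian process model; HC: hill climbing; a sequence that several methods proposed may carry one label only). Affinity was read by AlphaSeq, a pooled yeast mating assay with surface-displayed partners. After mating in shaken culture at 30 °C for 16 h, diploids were selected and their barcode pairs sequenced. The ratio of observed to expected reads was calibrated, replicate by replicate, on BCL2-family standards whose Kd was known from biolayer interferometry. The assay was run in six technical replicates.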

Each variant's VL is given in full. Numbers give log10(Kd / nM), so 0 is 1 nM and 3 is 1 µM. Smaller is tighter.

VL,"log10 Kd, replicates",signal with controls
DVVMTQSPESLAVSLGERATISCKISQSVLMENRNKNSVAWYQQKAGQPPKLLIYDASTRESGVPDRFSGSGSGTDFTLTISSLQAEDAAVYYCQQYHRLPLSFGGGTKVEIK,-0.02 -0.11 -0.15 -0.17 -0.23 0.02,2 of 18 (4.43)
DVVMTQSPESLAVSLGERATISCKSSISILYESVNKNSVAWYQQKAGQPPKLLIYHASTRESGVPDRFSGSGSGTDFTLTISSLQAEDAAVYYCQQYHRLPLSFGGGTKVEIK,1.17 0.40 0.93 0.67 0.50 1.05,0 of 18
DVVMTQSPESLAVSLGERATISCKSSISMLEESRNKNSVAWYQQKAGQPPKLLIYEASTRESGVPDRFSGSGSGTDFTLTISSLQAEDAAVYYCQQYHRLPLSFGGGTKVEIK,0.04 -0.07 0.40 -0.05 -0.10 0.39,0 of 18
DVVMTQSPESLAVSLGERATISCKLSQSVLMEHRNKNSVAWYQQKAGQPPKLLIYDASLRESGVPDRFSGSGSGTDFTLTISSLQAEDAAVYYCQQYHRLPLSFGGGTKVEIK,0.72 0.21 0.01 0.13 0.02 0.28,1 of 18 (2.30)
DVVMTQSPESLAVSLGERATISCKFSQSVLYESTTPNSVAWYQQKAGQPPKLLIYNASTRESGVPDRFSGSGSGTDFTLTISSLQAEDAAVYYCQQYHRLPLSFGGGTKVEIK,0.11 0.12 0.01 0.01 0.10 0.22,0 of 18
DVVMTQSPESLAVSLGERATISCHSSPSVPYESRNKNSVAWYQQKAGQPPKLLIYNASTRESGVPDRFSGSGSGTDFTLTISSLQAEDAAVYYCQQYHRLPLSFGGGTKVEIK,-0.04 -0.05 -0.31 -0.20 -0.03 -0.34,2 of 18 (2.41)
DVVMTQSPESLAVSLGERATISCKSGQSVLYESRNKNSVAWYQQKAGQPPKLLIYGASTRESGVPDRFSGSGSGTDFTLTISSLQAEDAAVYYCQQYHRLPLIFGGGTKVEIK,0.97 0.86 0.95 0.54 0.85 0.74,1 of 18 (2.27)
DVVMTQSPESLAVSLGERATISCKQSQAFLNESRNKNSVAWYQQKAGQPPKLLIYDASTRESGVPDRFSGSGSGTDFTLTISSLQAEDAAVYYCQQYHRLPLSFGGGTKVEIK,0.81 0.65 0.48 0.57 0.73 1.32,0 of 18
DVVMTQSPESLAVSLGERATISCVFSQSVLYESRTKNSVAWYQQKAGQPPKLLIYNASTRESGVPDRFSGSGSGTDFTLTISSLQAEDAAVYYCQQYHRLPLSFGGGTKVEIK,0.37 0.27 0.29 0.16 -0.01 0.53,0 of 18
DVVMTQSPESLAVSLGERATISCKSLQSWDYESRNKNSVAWYQQKAGQPPKLLIYHASTREQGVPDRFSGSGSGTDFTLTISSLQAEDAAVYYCQQYHRLPLSFGGGTKVEIK,0.06 -0.14 -0.06 -0.23 0.07 0.09,1 of 18 (2.47)
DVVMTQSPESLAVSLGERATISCKSPQGVLYESRNWNSVAWYQQKAGQPPKLLIYGASTRESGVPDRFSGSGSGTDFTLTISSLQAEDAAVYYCQQYHRLPLSFGGGTKVEIK,0.07 0.12 -0.05 -0.07 0.01 0.15,3 of 18 (3.38)
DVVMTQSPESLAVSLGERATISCKVRQSTLYESRNKNSVAWYQQKAGQPPKLLIYEASTRESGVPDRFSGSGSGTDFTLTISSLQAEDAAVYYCQQYHRLPLSFGGGTKVEIK,-0.31 -0.30 -0.67 -0.53 -0.55 -0.19,0 of 18
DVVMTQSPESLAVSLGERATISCKSSISGLYESRNFNSVAWYQQKAGQPPKLLIYEASTRESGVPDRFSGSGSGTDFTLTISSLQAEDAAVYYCQQYHRLPLSFGGGTKVEIK,0.67 0.47 1.01 0.51 0.82 0.80,2 of 18 (2.00)
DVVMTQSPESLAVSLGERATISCHSSPSGLYESRNKNSVAWYQQKAGQPPKLLIYNASTRESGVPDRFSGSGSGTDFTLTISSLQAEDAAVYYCQQYHRLPLQFGGGTKVEIK,0.13 0.35 0.37 -0.01 -0.05 0.47,0 of 18
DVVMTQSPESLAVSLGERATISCKLPQMVLYESRNKNSVAWYQQKAGQPPKLLIYGASTRESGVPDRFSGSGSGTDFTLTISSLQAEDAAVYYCQQYHRLPLSFGGGTKVEIK,-0.05 -0.07 -0.38 -0.39 -0.46 -0.18,0 of 18
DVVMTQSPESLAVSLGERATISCKVSKSVLFESRNKNSVAWYQQKAGQPPKLLIYNASTRESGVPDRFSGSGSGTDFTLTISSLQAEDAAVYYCQQYHRLPLSFGGGTKVEIK,0.98 0.68 0.40 0.38 0.65 0.63,0 of 18

The first 2 entries again:

VL,"log10 Kd, replicates",signal with controls
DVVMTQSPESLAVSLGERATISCKISQSVLMENRNKNSVAWYQQKAGQPPKLLIYDASTRESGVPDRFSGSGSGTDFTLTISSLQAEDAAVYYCQQYHRLPLSFGGGTKVEIK,-0.02 -0.11 -0.15 -0.17 -0.23 0.02,2 of 18 (4.43)
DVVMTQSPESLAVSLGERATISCKSSISILYESVNKNSVAWYQQKAGQPPKLLIYHASTRESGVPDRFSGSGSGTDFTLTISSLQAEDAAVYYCQQYHRLPLSFGGGTKVEIK,1.17 0.40 0.93 0.67 0.50 1.05,0 of 18

The authors' rule: three or more of the six replicates give a measured affinity, fewer mean a poor binder. A sequence measured in both rounds can read differently, since the two assays cover different ranges. Three control strains display no target. For all light chain designs, 4% of the pairings with them gave a signal, with a median of 2.64 and one signal in twenty below 1.59, so weak values seen in few replicates may be background. Also given: how often the same scFv was detected with the empty control strains, with their mean in brackets. Of ten entries with the parent sequence, four were seen in most replicates (averages 0.34 to 2.37), three in one and three in none, so single entries are noisy.